This assay concerns the target T1, ubiquitin (UniProt P0CG48 1-76).
T1 construct: ubiquitin, the free monomer (cut product of a polyubiquitin precursor); 15N-labelled in the NMR titrations; also called free ubiquitin; source: untagged, purified by heating at 85 °C, centrifugation and size exclusion chromatography
Put plainly: NMR titration; 1H-15N HSQC of free 15N-labelled ubiquitin after addition of Arkadia 119 aa (isoform 1) or Arkadia isoform 2. The note with it: both partners purified.

The record followed here is PMC9501438, “Unveiling the Essential Role of Arkadia’s Non-RING Elements in the Ubiquitination Process” (International Journal of Molecular Sciences, 2022).

B1: Arkadia isoform 2 (876–986 aa) (domain or fragment, human, UniProt Q6ZNA4-2 876-986, looked up)
chain: FRGNFEELIHLEERLGNVNRGASQGTIERCTYPHKYKKRKLHCKQDGEEGTEEDTEEKCTICLSILEEGEDVRRLPCMHLFHQVCVDQWLITNKKCPICRVDIEAQLPSES
notes: Arkadia (RNF111) isoform 2, which lacks the segment Val914-Q921 of isoform 1; numbers count on: isoform 2
With B1, the binding result is listed as “binds”.
